Reference: PubChem BioAssay AID504634 (The Scripps Research Institute Molecular Screening Center, 2011)
This is a selection; strong and weak results do not stand in their true shares. Calls of active or inactive are those of the source. Cut-off read from the data, not from the text of the source: active = inhibition mostly above about 23% (no sharp cut-off); inactive = mostly below about 18%.

Amino acid sequences for entries named in this document (tags omitted).
UniProt P47898, whole entry, looked up: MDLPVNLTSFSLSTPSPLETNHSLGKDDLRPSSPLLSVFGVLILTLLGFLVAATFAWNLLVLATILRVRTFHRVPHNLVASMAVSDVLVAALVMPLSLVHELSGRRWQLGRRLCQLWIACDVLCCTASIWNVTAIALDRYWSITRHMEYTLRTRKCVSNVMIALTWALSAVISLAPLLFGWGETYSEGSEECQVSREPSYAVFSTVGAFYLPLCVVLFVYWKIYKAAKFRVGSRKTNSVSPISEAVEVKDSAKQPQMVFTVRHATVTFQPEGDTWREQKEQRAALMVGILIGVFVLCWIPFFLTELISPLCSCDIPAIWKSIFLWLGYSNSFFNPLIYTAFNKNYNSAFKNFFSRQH

target: 5-hydroxytryptamine receptor 5A (Homo sapiens) (UniProt P47898); test: HTR5A inverse agonists in luminescence cell assay, primary screen, counter-screen for OPRM1-OPRD1 heterodimer inverse agonist project, full-deck HTS (AID 504634); settings: HTR5A cell line, inverse agonism, at 9.3 µM, stronger effect = higher value;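 note: 0% = cells with DMSO and 100% = no-cell wells with DMSO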

Row | SMILES | inhibition
1 | O=C(NC1CCCCC1)N1CCC(n2c(=O)[nH]c3ccccc32)CC1 | inactive: -54.1%
2 | Cn1c(=O)c2c(nc(Sc3nc4ccccc4n3CC(=O)N3CCCCC3)n2C)n(C)c1=O | inactive: -28.1%
3 | O=C(Cn1cnc2c(OCc3ccccc3)ncnc21)NCCCn1ccnc1 | inactive: 1.85%
4 | CCSc1nc2ccccc2n1CC(=O)N1CCCCC1 | inactive: -15.7%
5 | Cc1nc2ccccc2n1CC(=O)NC1CCCCCC1 | inactive: 4.27%
6 | O=C1CC(C(=O)Nc2cccc(F)c2)n2c(nc3ccccc32)N1 (stereo not drawn) | inactive: 0.54%
7 | CC1CCN(C(=O)Oc2c(Cl)cc(Cl)c3cccnc23)CC1 | inactive: 3.92%
8 | CNC(=O)Cc1nc2ccccc2n1CC(=O)Nc1cc(C)cc(C)c1 | inactive: -14.6%
9 | N=c1n(CCN2CCOCC2)c2ccccc2n1CC(=O)c1cccc([N+](=O)[O-])c1 | inactive: -9.96%
10 | O=C(Cn1cnc2c(OCc3ccccc3)ncnc21)NCCCN1CCCC1=O | inactive: -13.8%
11 | CN(C)C(=O)OCCc1n(C)cc[n+]1C | inactive: 1.49%
12 | CC(C)=N/N=C(\N)N[N+](=O)[O-] | inactive: 17.1%
13 | Cn1c(=O)n(CC(=O)N2CCN(c3nnc(-c4ccccc4)c4ccccc34)CC2)c2ccccc21 | inactive: -2.01%
14 | COC(=O)[C@H](Cc1ccc(O)cc1)NC(=O)Cn1cnc2c(NCc3ccccc3)ncnc21 | inactive: -17.5%
15 | NNC(=O)Cn1c(SCc2ccccc2)nc2ccccc21 | inactive: -9.97%
16 | CCN(CC)CCn1c(NCc2cccc(OC)c2OC)nc2ccccc21 | inactive: 5.1%
17 | CN1CCC(N(C)c2ncnc3ccc(Br)cc23)CC1 | inactive: 7.04%
18 | Cn1c(=O)c2c(ncn2CC(=O)N2CCN(c3ccc([N+](=O)[O-])cc3)CC2)n(C)c1=O | inactive: 1.02%
19 | CCc1nc2ccccc2n1CC(=O)N(C(C)CC)C1CCS(=O)(=O)C1 (stereo not drawn) | inactive: -29.1%
20 | CCOC(=O)c1c(NC(=O)Cn2c(C)nc3ccccc32)sc2c1CCC2 | inactive: -16.6%
21 | CC(C)C[C@H](NC(=O)N1CCn2c1nc1ccccc12)C(=O)NC1CCCCC1 | inactive: -9.03%
22 | O=C(Nc1ccc2c(c1)nc1n2CCN(Cc2ccccc2)C1)NC1CCCCC1 | inactive: 10.1%

Row | SMILES | inhibition
23 | CCN(/C(=N/P(=O)(N1CCOCC1)N1CCOCC1)N1CCOCC1)c1ccc(OC)cc1 | inactive: 13.9%
24 | COc1ccc(/C([O-])=C(/C(=S)Nc2ccc(C)c(C)c2)n2c[n+](C)c3ccccc32)cc1OC | inactive: 12.7%
25 | Cc1ccc(-c2nnc(N3CCN(C(=O)Cn4c(=O)n(C)c5ccccc54)CC3)c3ccccc23)cc1 | inactive: -11.9%
26 | CCc1ccc(C(C)NC(=O)Cn2cnc3c(=O)n(C)c(=O)n(C)c32)cc1 (stereo not drawn) | inactive: -8.11%
27 | Cc1nc2ccccc2n1CC(=O)NC(C)C1CC2CCC1C2 (stereo not drawn) | inactive: 31.9%
28 | C[N+]1=C2C=CC=CC=C2SC12C([N+](=O)[O-])=CC([N+](=O)[O-])=C[C-]2[N+](=O)[O-] (stereo not drawn) | inactive: -15%
29 | COc1ccc(-c2ccc3c(c2)[C@@H]2C[C@H](N(C)C(=O)Nc4ccccc4)[C@H]([C@H](C)O)C(=O)N2CC3)cc1 | inactive: -0.25%
30 | Nc1ccc([As](=O)(O)c2ccc(N)cc2)cc1 | inactive: -10.2%
31 | COCC(=O)N(C)[C@H]1C[C@H]2c3cc(N4CCN(C)CC4)ccc3CCN2C(=O)[C@H]1[C@H](C)O | inactive: -0.07%
32 | C[C@H](NC(=O)N1CCn2c1nc1ccccc12)C(=O)NC1CCCCC1 | inactive: -14.5%
33 | CCC(CC)NC(=O)Cn1c(C(C)NC(C)=O)nc2ccccc21 (stereo not drawn) | inactive: -0.43%
34 | c1ccc(CCn2nnnc2CN2CCC(n3nnc4ccccc43)CC2)cc1 | inactive: 24%
35 | FC(F)(F)c1ccc2c(c1)nnn2C1CCN(Cc2nnnn2Cc2ccccc2)CC1 | inactive: -8.49%
36 | COc1ccc2nc(NC(=O)Cn3cnc4c(=O)n(C)c(=O)n(C)c43)sc2c1 | inactive: 6.95%
37 | CCC(=O)Nc1ccc(NC(=S)NC(=O)/C=C/c2ccccc2)cc1 | inactive: 16%
38 | Cn1c(=O)[nH]c(=O)c2c1nc(CN1CCN(c3ccccc3F)CC1)n2CC(N)=O | inactive: 0.95%
39 | CC1CN(Cc2nc3c(c(=O)[nH]c(=O)n3C)n2CC(N)=O)CC(C)O1 (stereo not drawn) | inactive: -11.6%
40 | Cc1nc2cc(C(F)(F)F)ccc2n1C1CCN(Cc2nnnn2Cc2ccc3c(c2)OCO3)CC1 | inactive: 21%
41 | Cc1ccc(CNC(=O)CCNC(=O)N2CCn3c2nc2ccccc23)cc1 | inactive: 11.8%
42 | COc1ccc(CNc2nc3ccccc3n2CCN2CCCCC2)c(OC)c1 | inactive: 16.2%
43 | c1ccc(CN2CCC3(CC2)Nc2ccccc2S3)cc1 | inactive: -14.7%
44 | COc1ccccc1CNc1nc2ccccc2n1CCN1CCCCC1 | inactive: -2.64%

Row | SMILES | inhibition
45 | COc1ccc(N2CCn3c2nc2c3c(=O)n(CCCc3ccccc3)c(=O)n2C)c(OC)c1 | inactive: 0.73%
46 | CCSc1nnc(NC(=O)Cn2cnc3c2c(=O)n(C)c(=O)n3C)s1 | inactive: 0.32%
47 | Cc1cc(C)c(CN2CCN(C(=O)Cn3cnc4c(OCc5ccccc5)ncnc43)CC2)c(C)c1 | inactive: -2.33%
48 | C=CCc1cccc(CNc2nc3ccccc3n2CCN2CCOCC2)c1O | inactive: -48.4%
49 | O=C(Nc1cc([As](=O)(O)O)ccc1O)c1ccccc1 | inactive: -25.7%
50 | Cn1c(=O)n(CC(=O)Nc2ccccc2)c2ccccc21 | inactive: -2.79%
51 | O=C(c1ccco1)N1CCn2c1nc1ccccc12 | inactive: 16.6%
52 | COc1ccc(Cc2nc3ccccc3n2CC(=O)N/N=C/c2ccccc2)cc1OC | inactive: -3.69%
53 | COc1ccccc1NS(=O)(=O)c1cc(NC(=O)Cn2cnc3c2c(=O)n(C)c(=O)n3C)ccc1C | inactive: -11.2%
54 | Cn1c(=O)[nH]c(=O)c2c1nc(SCc1ccccc1Cl)n2CC(N)=O | inactive: 3.01%
55 | COc1ccc(CNC(=O)Cn2cnc3c(=O)n(C)c(=O)n(C)c32)cc1 | inactive: -11.9%
56 | Cc1ccc2c(c1)[C@@H]1CN(C)CC[C@@H]1N2S(=O)(=O)c1ccc(F)cc1 | inactive: -10.9%
57 | O=C(Cn1cnc2ccccc21)NCCCN1CCOCC1 | inactive: -21.8%
58 | CC(C)[C@H](NC(=O)N1CCn2c1nc1ccccc12)C(=O)N[C@H](C(=O)O)c1ccccc1 | inactive: 15.2%
59 | CC(C)[C@H](NC(=O)N1CCn2c1nc1ccccc12)C(=O)NCc1ccc2c(c1)OCO2 | inactive: 10.4%
60 | Cn1c(=O)c2ncn(CC(=O)NC3CCCCCC3)c2n(C)c1=O | inactive: -8.46%
61 | Cn1c(=O)n(Cc2ccc(Cl)cc2)c(=O)c2c1nc1n2CCN1Cc1ccco1 | inactive: -4.09%
62 | O=P1(N(CCCl)CCCl)OCCCS1 (stereo not drawn) | inactive: -0.19%
63 | O=[N+]([O-])c1ccccc1NC1CCN(Cc2ccccc2)CC1 | inactive: 4.04%
64 | Cc1ccc2c(c1)C1CN(C)CCC1N2C(=O)Nc1ccc(Cl)cc1 (stereo not drawn) | inactive: 2.17%
65 | CSc1nc(N)nc2c1ncn2CC(=O)N[C@H](CO)Cc1c[nH]c2ccccc12 | inactive: 11.4%
66 | Cc1ccc2c(c1)C1CN(C)CCC1N2C(=O)c1cccnc1Cl (stereo not drawn) | inactive: 4.07%

Row | SMILES | inhibition
67 | N#CCC(=O)N/N=C\c1ccccc1OC/C=C/c1ccccc1 | inactive: -11%
68 | Cc1ccc2c(c1)C1CN(C)CCC1N2CC(=O)N(C)c1ccccc1 (stereo not drawn) | inactive: -12.7%
69 | COCCCNC(=O)Cn1cnc2c(OCc3ccccc3)ncnc21 | inactive: -14%
70 | CCOC(=O)Nc1ccc2c(c1)nc1n2CCN(CCOC)C1 | inactive: -22.3%
71 | COc1ccc(Cc2nnc(NC(=O)Cn3cnc4c3c(=O)n(C)c(=O)n4C)s2)cc1 | inactive: -11.6%
72 | CCN(CC)CCn1c(=N)n(CC(O)c2ccco2)c2ccccc21 (stereo not drawn) | inactive: -4.47%
73 | CC(C)Oc1cccnc1N(C)C1CCN(Cc2ccccc2)CC1 | inactive: 9.37%
74 | Cn1c(=O)c2c(nc(NCCc3ccccc3)n2CC(=O)NCCc2ccccc2)n(C)c1=O | inactive: 4.98%
75 | COC(=O)C[C@H](NC(=O)Cn1cnc2c(SC)nc(N)nc21)C(=O)OC | inactive: -14.9%
76 | Cc1ccc(-c2csc(N3CCN(c4cc5c(cc4Cl)nc(C)n5CCN4CCCCC4)CC3)n2)cc1 | inactive: -10.8%
77 | Cc1cc(NC(=O)CSc2nc3ccccc3n2CC(=O)N2CCCCC2)no1 | inactive: 10.1%
78 | O=C(CCCN1CCC2(CC1)C(=O)NCN2c1ccccc1)c1ccc(F)cc1 | inactive: -2.42%
79 | COc1cc(NC(=O)Cn2c(-c3cncs3)nc3ccccc32)cc(OC)c1OC | inactive: -3.54%
80 | Cn1c(=O)c2c(nc(CN3CCN(c4ccc(F)cc4)CC3)n2CCN2CCOCC2)n(C)c1=O | inactive: -4.07%
81 | COC(=O)c1ccc(N2C(=O)CC(N3CCC(n4c(=O)[nH]c5ccccc54)CC3)C2=O)cc1 (stereo not drawn) | inactive: -25.1%
82 | COc1cccc(NC(=O)Cn2c(-c3cncs3)nc3ccccc32)c1 | inactive: 5.66%
83 | CCc1nc2ccccc2n1CC(=O)NC1CCS(=O)(=O)C1 (stereo not drawn) | inactive: -1.25%
84 | COc1cccc(CNC(=O)CCNC(=O)N2CCn3c2nc2ccccc23)c1 | inactive: 6.86%
85 | O=C1CCC(=O)N1c1ccc(NC2CCN(Cc3ccccc3)CC2)c([N+](=O)[O-])c1 | inactive: 7.26%
86 | O=C(c1ccccc1Br)N1CCn2c1nc1ccccc12 | inactive: -1.75%
87 | Cc1cccc(NC(=O)Cn2c(/C=C/c3ccccc3)nc3ccccc32)c1 | inactive: -0.71%
88 | O=C(O)CNc1ccc([As](=O)(O)O)cc1 | inactive: -3.06%
